The values that follow come from ChEMBL document CHEMBL4325822, “Discovery of a tetrazolyl β-carboline with in vitro and in vivo osteoprotective activity under estrogen-deficient conditions” (Medchemcomm, 2018).

Holding throughout (assay type): functional
The subject of assay [1] is Rattus norvegicus. As to the kind of experiment: Antiosteoporotic activity in Sprague-Dawley rat model of OVX-induced bone loss assessed as protection against microarchitectural deterioration by measuring trabecular bone pattern factor at 1 mg/kg, po via gavage for 12 weeks by microcomputed tomographic analysis (reference value: 10.81 +/- 0.68 /millimeter).
Assay [2] concerns Rattus norvegicus. Nature of the assay: Antiosteoporotic activity in Sprague-Dawley rat model of OVX-induced bone loss assessed as protection against microarchitectural deterioration by measuring structural model index at 5 mg/kg, po via gavage for 12 weeks by microcomputed tomographic analysis (reference value: 2.07 +/- 0.06).
In assay [3] the test system is Rattus norvegicus. As to the kind of experiment: Antiosteoporotic activity in Sprague-Dawley rat model of OVX-induced bone loss assessed as protection against microarchitectural deterioration by measuring ratio of bone volume/trabecular volume at 1 mg/kg, po via gavage for 12 weeks by microcomputed tomographic analysis (reference value: 4.68 +/- 0.58%).
In assay [4] the test system is Rattus norvegicus. Nature of the assay: Antiosteoporotic activity in Sprague-Dawley rat model of OVX-induced bone loss assessed as protection against microarchitectural deterioration by measuring structural model index at 1 mg/kg, po via gavage for 12 weeks by microcomputed tomographic analysis (reference value: 2.07 +/- 0.06).
The test system of assay [5] is Rattus norvegicus. Nature of the assay: Antiosteoporotic activity in Sprague-Dawley rat model of OVX-induced bone loss assessed as protection against microarchitectural deterioration by measuring trabecular bone pattern factor at 5 mg/kg, po via gavage for 12 weeks by microcomputed tomographic analysis (reference value: 10.81 +/- 0.68 /millimeter).
Assay [6] concerns Rattus norvegicus. As to the kind of experiment: Antiosteoporotic activity in Sprague-Dawley rat model of OVX-induced bone loss assessed as protection against microarchitectural deterioration by measuring ratio of bone volume/trabecular volume at 5 mg/kg, po via gavage for 12 weeks by microcomputed tomographic analysis (reference value: 4.68 +/- 0.58%).

For the molecule `CCOC(=O)c1cc2c([nH]c3ccccc32)c(C(c2nnnn2C(C)(C)C)N2CCN(C)CC2)n1` (stereo unspecified), the Activity in assay [1] is reported as 5.67 /millimeter; in assay [5] it was 5.45 /millimeter. The figures for the Activity_index in assay [2] and in assay [4] were 1.61 and 1.66, respectively. Further, the values for the Ratio in assay [3] and in assay [6] were 10.55% and 10.09%, respectively.
